{"source": "ChEMBL document CHEMBL5579799", "about": "“Synthesis and biological evaluation of novel 18F-labeled 2,4-diaminopyrimidine derivatives for detection of ghrelin receptor in the brain” (Bioorg Med Chem Lett, 2024)", "test": "in vitro", "details": "mouse, plasma", "data": [{"smiles": "Nc1nc(N)c(-c2ccc(NCc3ccc(OCC[18F])cc3)cc2)c(COCc2ccccc2)n1", "values": [{"measurement": "remaining at 1 h", "result": 80, "unit": "%"}]}]}
